How the values were obtained:
[1] = molecular target: farnesyl protein transferase (FPT), H-ras (Homo sapiens, UniProt P49354+P49356); assay: FPT IC50 (H-ras), inhibition of farnesyl protein transferase, in vitro enzyme assay; conditions: read-out: FPT IC50; Table 4
COS Cell = COS Cell IC50 (Cell-Based Assay); conditions: read-out: Cos Cell IC50; Table 5
Protocol: FPT IC50 (inhibition of farnesyl protein transferase, in vitro enzyme assay) and COS Cell IC50 (Cell-Based Assay) were determined following the assay procedures described in WO 95/10516, published Apr. 20, 1995. GGPT IC50 (inhibition of geranylgeranyl protein transferase, in vitro enzyme assay), Cell Mat Assay, and anti-tumor activity (in vivo anti-tumor studies) could be determined by the assay procedures described in WO 95/10516. The disclosure of WO 95/10516 is incorporated herein by reference thereto.

Amino acid sequences for entries named in this document (tags omitted).
UniProt P49356, whole entry: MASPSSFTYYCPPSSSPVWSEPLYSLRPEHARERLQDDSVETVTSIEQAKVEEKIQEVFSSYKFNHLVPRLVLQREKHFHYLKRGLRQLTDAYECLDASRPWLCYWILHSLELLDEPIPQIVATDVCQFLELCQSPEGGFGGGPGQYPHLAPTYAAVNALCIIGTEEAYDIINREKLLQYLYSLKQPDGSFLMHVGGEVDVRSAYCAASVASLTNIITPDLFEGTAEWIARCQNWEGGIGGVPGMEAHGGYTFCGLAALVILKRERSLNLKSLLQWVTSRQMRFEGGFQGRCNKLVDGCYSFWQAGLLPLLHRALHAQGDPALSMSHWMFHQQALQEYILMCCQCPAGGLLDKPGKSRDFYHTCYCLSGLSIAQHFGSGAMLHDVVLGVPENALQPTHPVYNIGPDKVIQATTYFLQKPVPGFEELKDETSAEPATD

Human tumor cells = assay: Soft Agar Assay (anchorage-independent growth); type: cell-based; conditions: read-out: Soft Agar IC50; Table 5
Protocol: Anchorage-independent growth is a characteristic of tumorgenic cell lines. Human tumor cells are suspended in growth medium containing 0.3% agarose and an indicated concentration of a farnesyl transferase inhibitor. The solution is overlayed onto growth medium solidified with 0.6% agarose containing the same concentration of farnesyl transferase inhibitor as the top layer. After the top layer is solidified, plates are incubated for 10-16 days at 37° C. under 5% CO2 to allow colony outgrowth. After incubation, the colonies are stained by overlaying the agar with a solution of MTT (3-[4,5-dimethyl-thiazol-2-yl]-2,5-diphenyltetrazolium bromide, Thiazolyl blue) (1 mg/mL in PBS). Colonies can be counted and the IC50's can be determined.

**Q.** For `CNC(=O)C(=O)N1CCC(CC(=O)N2CCC([C@H]3c4ncc(Br)cc4CCc4cc(Cl)cc(Br)c43)CC2)CC1` [Cmpd 64.0-B], which IC50 [1] is on record?
**A.** 5.2 nM

**Q.** What does the source list for `COC(=O)CCCCCC(=O)N1CCC(CC(=O)N2CCC([C@H]3c4ncc(Br)cc4CCc4cc(Cl)cc(Br)c43)CC2)CC1`?
**A.** IC50 [1]: 6.9 nM; IC50 (COS Cell): 10 nM; IC50 (Human tumor cells): 220 nM

**Q.** What does the source list for `COC(=O)CCCCC(=O)N1CCC(CC(=O)N2CCC([C@H]3c4ncc(Br)cc4CCc4cc(Cl)cc(Br)c43)CC2)CC1`?
**A.** IC50 [1]: 5.3 nM; IC50 (COS Cell): 10 nM; IC50 (Human tumor cells): 320 nM

Reference: patent publication US6387905B2, “Compounds useful for inhibition of farnesyl protein transferase” (Schering Corporation, priority 1996, dated 2002)
